# According to article PMC11374718, “Unlocking opioid neuropeptide dynamics with genetically encoded biosensors” (Nature Neuroscience, 2024):
# Amino acid sequences for entries named in this document (tags omitted). Chains listed by the source or under a name are the forms on record and can include a tag or linker. Residues count along the entry.
# UniProt P41143, 1-372 with tags or gaps with the stated changes: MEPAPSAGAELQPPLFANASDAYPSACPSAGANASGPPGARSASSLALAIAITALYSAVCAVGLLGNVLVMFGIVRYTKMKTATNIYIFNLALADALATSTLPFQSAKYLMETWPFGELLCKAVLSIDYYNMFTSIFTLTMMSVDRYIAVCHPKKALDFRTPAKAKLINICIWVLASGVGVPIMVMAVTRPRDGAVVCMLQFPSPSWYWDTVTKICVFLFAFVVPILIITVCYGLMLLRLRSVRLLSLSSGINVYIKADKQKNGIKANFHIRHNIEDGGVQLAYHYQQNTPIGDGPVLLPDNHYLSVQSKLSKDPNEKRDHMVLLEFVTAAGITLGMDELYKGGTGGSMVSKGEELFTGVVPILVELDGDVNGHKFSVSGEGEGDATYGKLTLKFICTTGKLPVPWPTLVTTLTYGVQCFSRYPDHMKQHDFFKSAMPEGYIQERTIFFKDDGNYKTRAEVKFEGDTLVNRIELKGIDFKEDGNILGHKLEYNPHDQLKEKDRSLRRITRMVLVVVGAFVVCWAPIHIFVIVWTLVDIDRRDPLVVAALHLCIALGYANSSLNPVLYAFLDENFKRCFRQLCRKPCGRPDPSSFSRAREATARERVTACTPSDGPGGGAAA
# UniProt P35372, whole entry V175Q, looked up: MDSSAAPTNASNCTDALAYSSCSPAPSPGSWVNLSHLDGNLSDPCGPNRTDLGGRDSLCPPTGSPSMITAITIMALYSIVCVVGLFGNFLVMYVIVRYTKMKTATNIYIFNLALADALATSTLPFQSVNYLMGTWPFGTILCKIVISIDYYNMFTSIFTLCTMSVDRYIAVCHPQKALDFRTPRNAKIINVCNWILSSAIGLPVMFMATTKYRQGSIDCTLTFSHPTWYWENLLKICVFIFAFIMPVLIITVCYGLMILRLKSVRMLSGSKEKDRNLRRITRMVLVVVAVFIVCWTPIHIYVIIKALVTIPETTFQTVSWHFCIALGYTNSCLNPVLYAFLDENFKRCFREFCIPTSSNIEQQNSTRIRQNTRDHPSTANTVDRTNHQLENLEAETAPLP
# Assays:
# δLight = δLight (Homo sapiens, UniProt P41143); test: in situ titration, fluorescence ΔF/F in δLight stable HEK293T cells; assay type: cell-based; settings: compound 10 nM; normalized to ME; n = 4 wells; ± s.e.m.
# µLight = µLight (Homo sapiens, UniProt P35372, V175Q); test: [3H]diprenorphine displacement binding, µLight cell membranes
smiles,measurement,setting,value
CSCC[C@H](NC(=O)[C@H](Cc1ccccc1)NC(=O)CNC(=O)CNC(=O)[C@@H](N)Cc1ccc(O)cc1)C(=O)N[C@@H](CCCNC(=N)N)C(=O)N[C@@H](CCCNC(=N)N)C(=O)N[C@H](C(N)=O)C(C)C,Normalized ΔF/F of δLight,δLight,0.07 ± 0.02
same,order of magnitude of IC50 at µLight,µLight,µM IC50
